Data: PubChem BioAssay AID1159524 (National Center for Advancing Translational Sciences (NCATS), 2015)
In all, about 410,000 compounds went through this assay and about 5,100 (1.2%) were called active. All entries are inconclusive by the source's own rule. Clear calls are listed elsewhere. Calls follow the shape of the full dose curve; tested in HEK293T cells.
Potency is read from the fitted curve at half-maximal effect.

Test: High Throughput Screening for Foot and Mouth Disease Virus Antivirals; also: read-out not given here; nearly all actives have a fitted effect of over 45% in size
Conditions: FMDV antiviral cell-based qHTS
For `O=[N+]([O-])c1ccc(Nc2ccc(Oc3ccc([N+](=O)[O-])cc3[N+](=O)[O-])cc2)c([N+](=O)[O-])c1`, the Potency was inconclusive: 11.2 µM.
With `O=C(Nc1ccncc1[N+](=O)[O-])c1ccc([N+](=O)[O-])cc1[N+](=O)[O-]` the Potency was inconclusive: 39.8 µM.
In the case of `CSc1ccc(Nc2c([N+](=O)[O-])cc([N+](=O)[O-])cc2[N+](=O)[O-])cc1`, the Potency is reported as inconclusive: 35.5 µM.
In the case of `O=c1c2cc([N+](=O)[O-])ccc2[nH]c2c([N+](=O)[O-])cc([N+](=O)[O-])cc12`, the Potency is reported as inconclusive: 7.08 µM.
In the case of `CC(=O)NC(SC(=S)N(C)C)C(Cl)(Cl)Cl` (stereo unspecified), the Potency is reported as inconclusive: 0.891 µM.
For `O=[N+]([O-])c1ccc(O)c(/C=N/Nc2ccc([N+](=O)[O-])cc2[N+](=O)[O-])c1`, the Potency was inconclusive: 3.16 µM.
